In paper PMC4897634, “Design of an α-helical antimicrobial peptide with improved cell-selective and potent anti-biofilm activity” (Scientific Reports, 2016):
Values after ≈ are worked out from the molar mass of the structure shown. Values joined by “and” are separate entries in the source; they are usually repeats but may differ in a detail not shown here. Equal values may be shown once.

Tests used:
Assay in all cases: Antimicrobial activity, broth microdilution MIC
Format in all cases: cell-based
Settings in all cases: modified CLSI broth microdilution, LB medium, 1 × 10^6 CFU/ml, 37 °C, 18 to 20 hours, absorbance 600 nm
[1] = system: Staphylococcus epidermidis (1.4260)
Procedure: (§1) The antibacterial activities of the peptides against three Gram-negative bacteria and three Gram-positive bacteria strains were measured using a modified version of the Clinical Laboratory and Standards Institute (CLSI) broth microdilution method as described previously. Three Gram-negative bacteria, Escherichia coli (1.8732), Pseudomonas aeruginosa (1.2421), and Klebsiella pneumonia (1.1736), and three Gram-positive bacteria, Staphylococcus aureus (1.8721), Staphylococcus epidermidis (1.4260), and Bacillus subtilis (1.3376), were purchased from the China General Microbiological Culture Collection Centre (CGMCC). Briefly, bacteria were grown in liquid LB medium (tryptone, 10 g/L, yeast extract, 5 g/L and NaCl, 10 g/L) at 37 °C to mid-log phase, and the bacteria were diluted to 1 × 10^6 colony-forming units (CFU)/ml. The peptides were serially diluted with phosphate-buffered saline (PBS), and 50 μl diluted peptides were added to 50 μl of the bacterial suspension in 96-well plate (Corning Inc., Lowell, MA, USA). After incubation at 37 °C for 18 to 20 hours, the absorbance of each well was recorded using a multi-well microplate reader (SpectraMax M5; Molecular Devices, Sunnyvale, CA, USA) at 600 nm. The lowest concentration at which the peptide inhibited complete growth of the bacteria was taken as the minimal inhibitory concentration (MIC).

[2] = system: Staphylococcus aureus (1.8721)
Procedure: as §1

[3] = system: Escherichia coli (1.8732)
Procedure: as §1

[4] = system: Pseudomonas aeruginosa (1.2421)
Procedure: as §1

[5] = system: Bacillus subtilis (1.3376)
Procedure: as §1

CC[C@H](C)[C@H](NC(=O)CN)C(=O)NCC(=O)N[C@@H](C)C(=O)N[C@H](C(=O)N[C@@H](CC(C)C)C(=O)N[C@@H](CCCCN)C(=O)N[C@H](C(=O)N[C@@H](CC(C)C)C(=O)N[C@H](C(=O)N[C@H](C(=O)NCC(=O)N[C@@H](CC(C)C)C(=O)N1CCC[C@H]1C(=O)N[C@@H](C)C(=O)N[C@@H](CC(C)C)C(=O)N[C@H](C(=O)N[C@@H](CO)C(=O)N[C@@H](Cc1c[nH]c2ccccc12)C(=O)N[C@H](C(=O)N[C@@H](CCCCN)C(=O)N[C@@H](CCCNC(=N)N)C(=O)N[C@@H](CCCCN)C(=O)N[C@@H](CCCNC(=N)N)C(=O)N[C@@H](CCC(N)=O)C(=O)N[C@@H](CCC(N)=O)C(N)=O)[C@@H](C)CC)[C@@H](C)CC)[C@@H](C)O)[C@@H](C)O)C(C)C)C(C)C [Melittin, reference compound]
MIC S. epidermidis [1]: 3.125 µM and 3.13 µM | MIC S. aureus [2]: 3.125 µM and 3.13 µM | MIC E. coli [3]: 12.5 µM (≈ 35.6 µg/mL) | MIC P. aeruginosa [4]: 6.25 µM (≈ 17.8 µg/mL) | MIC B. subtilis [5]: 3.125 µM and 3.13 µM
